{
  "source": "patent US8729026B2",
  "about": "“Method for inhibiting autophagy of motor neurons” (China Medical University, priority 2012, dated 2014)",
  "origin": "cited, not measured here",
  "test_system": "SOD1-G93A transgenic mice",
  "conditions": "Riluzole, from reference Amyotrophic Lateral Sclerosis. 2009; 10: 85-94; cited from earlier work",
  "data": [
    {"smiles": "Nc1nc2ccc(OC(F)(F)F)cc2s1", "note": "[Riluzole]", "values": [
      {"measurement": "survival of SOD1-G93A transgenic mice", "result": 140, "unit": "days"}
    ]}
  ]
}
